Test results from paper PMC10681007, “Targeted Degradation of XIAP is Sufficient and Specific to Induce Apoptosis in MYCN-overexpressing High-risk Neuroblastoma” (Cancer Research Communications, 2023).

System: MYCN-amplified neuroblastoma PDX
Experiment: Survival and tumor analysis in orthotopic MYCN-amplified neuroblastoma PDX
Assay type: in vivo, NOD/SCID mice
Protocol: Neuroblastoma patient-derived xenografts (PDX) were generated from MYCN-amplified tumor samples of a patient with stage III high-risk undifferentiated neuroblastoma recruited with waiver of written parental consent and child assent, under SingHealth Duke NUS CIRB protocol 2014/2079 (Modeling, Analysis, and Translational Therapeutics for Tumors of Childhood), and implanted orthotopically in the retroperitoneal space of NOD/SCID mice. All experiments were performed under the approval of the Institutional Animal Care and Use Committee (SingHealth Duke NUS IACUC #1066). Histologic morphology of PDX tumors were compared with the original patient tumors at each passage to establish their congruence, and also confirmed with supporting IHC stains with neuroblastoma markers PHOX2B, TH and GD2 Synthase.
Tumor samples collected from neuroblastoma PDXs were infected with luciferase lentivirus. Tumor analysis was performed by intraperitoneal injection of D-luciferin solution (150 mg/kg; PerkinElmer) into the mice and imaged with an IVIS spectrum. Bioluminescent signals were then quantified using Living Imaging 4.4 (Caliper Life Sciences). After 4 weeks of tumor implantation into retroperitoneal space of mice, tumor-bearing mice were randomly assigned to receive either vehicle (DMSO; 1 mL/kg) or XIAP-specific antagonist A4 (10 mg/kg; n = 9 per group). All agents were administered by intraperitoneal injection twice weekly for consecutive 3 weeks. General health state of the mice were monitored weekly and were euthanized upon reaching humane endpoints. Survival data were recorded and Kaplan–Meier curves were plotted using GraphPad Prism software.
FIGURE 4 Treatment with XIAP-specific antagonist A4 prolongs and improves overall survival in high-risk neuroblastoma PDXs. A, Top, Immunoblot analysis of XIAP, cleaved PARP and cleaved caspase-3 expression in tumors harvested from treated neuroblastoma PDXs. Neuroblastoma PDXs were treated with 10 mg/kg A4 via intraperitoneal injection. Tumors were harvested over the following time courses of 0, 0.5, 1, 2, 4, 24, and 48 hours after dosing. β-actin is used as internal control. Bottom, Graphical representation of densitometry ratio for XIAP expression normalized to β-actin in tumors harvested from neuroblastoma PDXs as described in A (Supplementary Data S2). Values were expressed as mean ± SD with n = 3/timepoint. B, Kaplan–Meier survival plot of MYCN-amplified neuroblastoma PDXs (n = 9/treatment group). […] The mice were monitored over a period of 7 weeks, including 4 weeks of stabilizing implantation and subsequent 3 weeks of treatment period. log-rank (Mantel–Cox test) derived from Kaplan–Meier survival plot was used for statistical comparisons between groups with *, P < 0.05. […]

[1] = 10 mg/kg i.p. twice weekly, 3 weeks, n = 9

## COC(=O)c1[nH]c2ccc(Cl)cc2c1NC(=O)CN1CCN(Cc2ccccc2)CC1
10 mg/kg i.p. twice weekly, 3 weeks
  tumor size versus vehicle (bioluminescence imaging): no observable difference in tumor size
[1]
  mice alive at the end of the treatment period: more than 50%
  overall survival (Kaplan–Meier) versus vehicle: significantly longer overall survival
10 mg/kg, n = 5 tumors per group
  cleaved caspase 3 and TUNEL staining of tumors: increased positive staining for cleaved caspase 3 and TUNEL IHC
